Biological target: recombinant p34-cdc2/cyclin B1 (Homo sapiens, UniProt P06493)
Assay: Phosphorylation of biotinylated Aβ peptides by recombinant p34-cdc2/cyclin B1 (32P incorporation)

Amino acid sequences for entries named in this document (tags omitted).
UniProt P06493, whole entry: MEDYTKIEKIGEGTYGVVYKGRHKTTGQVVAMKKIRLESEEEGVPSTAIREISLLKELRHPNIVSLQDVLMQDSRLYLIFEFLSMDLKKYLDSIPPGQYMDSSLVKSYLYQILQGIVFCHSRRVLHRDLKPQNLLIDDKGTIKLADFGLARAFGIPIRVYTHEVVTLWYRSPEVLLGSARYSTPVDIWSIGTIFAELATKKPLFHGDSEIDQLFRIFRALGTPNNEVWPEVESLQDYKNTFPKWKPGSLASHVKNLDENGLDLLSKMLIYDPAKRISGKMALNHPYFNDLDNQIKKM

Aβ 12-28: Aβ fragment, residues 12-28
inhibition of phosphorylation of Aβ: inhibited

— patent publication US20040072753A1, “Peptides for use in the treatment of alzheimer's disease” (priority 2000, published 2004)
